The text below walks through data of patent US4565817A, “Theophyllinyl-alkyl-oxadiazoles, process for the preparation thereof and pharmaceutical compositions containing same” (Chinoin Gyogyszer-es Vegyeszeti Termekek Gyara R.T., priority 1982, dated 1986).

This data set can be described thus: in vivo. The following applies: mouse.

SMILES strings stand for the structures.

In the case of `Cc1nc(Cn2cnc3c2c(=O)n(C)c(=O)n3C)no1` [Example 1, 7-[(5-methyl-1,2,4-oxadiazol-3-yl)-methyl]-theophylline], the LD50 came out at 416 mg/kg (iv) and 1430 mg/kg (po).
